Patent US20200308162A1, “DRUGS AND COMPOSITIONS FOR OCULAR DELIVERY” (Graybug Vision, Inc., priority 2017, published 2020)
Entries after “also recorded” stand apart in the source; their conditions may differ.

Assays:
[1] = Stability of Timolol prodrugs in PBS via HPLC; type: physicochemical; conditions: PBS (100% PBS)
Method: Each point on the graph is the retention time of Compound 50, parent Timolol, and 4 breakdown products at day 0, 1, 2, 3, 4, or 5 as measured via HPLC.
The stability of Compound 51 was measured in 100% serum (FIG. 27A), 50% serum and 50% PBS (FIG. 27B), and 100% PBS (FIG. 27C) via HPLC. Each point on the graph is the retention time of Compound 51, parent Timolol, and 4 breakdown products at day 0, 1, 2, 3, 4, or 5 as measured. […] The concentration of the breakdown product with a retention time of 5.454 minutes was higher than the concentration of parent Timolol (retention time=4.4 minutes).
The stability of Compound 52 was measured in PBS (FIG. 28) and the stability of Compound 53 was measured in PBS (FIG. 29).

[2] = In vitro drug release kinetics of Timolol prodrug microparticles in PBS and 1% Tween 20 (pH 7.4) at 37° C.; type: physicochemical
Method: In vitro drug release kinetics were evaluated in a release medium composed of PBS and 1% Tween 20 (pH 7.4). Briefly, 10 mg of particles was suspended in 4 mL of the release medium The particle suspension was incubated on an orbital shaker at 150 rpm at 37° C. At various time points, 3 mL of release media was collected, and the suspension was replenished with 3 mL of fresh release media. Collected release samples were frozen and stored at −80° C. until analysis for drug content. The collected samples were filtered through a 0.2 μm syringe filter and analyzed by RP-HPLC. FIG. 17-FIG. 22 illustrate the total and parent Timolol release profile for the microparticles encapsulating bis-prodrugs of Timolol of Table 11.

extent of linear release profile ([2]; parent Timolol as primary compound released, FIG. 22): > 140 days
Substance: Timolol-Bis-N,O-Glycolic acid-Acetyl-PLA (n = 4) [Compound 50]
stability / breakdown into parent Timolol and breakdown products [1]: breaks down over the course of 5 days; also recorded: primarily breaks downs into the Timolol parent drug; also recorded: produced high concentrations of Timolol
parent Timolol released relative to total release of prodrug and intermediates ([2]; PBS and 1% Tween 20 (pH 7.4), 37° C.): primarily as native parent Timolol; also recorded: primarily the Timolol parent drug
correlation between total drug release and parent Timolol release ([2]; in vitro): high and correlates well and best correlation
linear (4-month) drug release ([2]; in vitro): exhibited linear drug release; also recorded: Linear 4-month drug release was only achieved with Compound 50; also recorded: only compound to consistently achieve linear 4-month drug release
